Data set [1] in a line: Dimensional distribution of nebulized droplets by laser light scattering (Sympatec Helos). The data set is classed as physicochemical. Conditions: after first minute of continuous delivery. How it is done: (§1) has improved in relation to the droplet diameter of the nebulized product and/or to the dose delivered in a standard delivery time for a patient, correspondent to 5 minutes, we have dispersed in 2 ml of distilled water 40 mg of powder, produced according to example 4 later described, correspondent to a 240 μg dose of salbutamol, comparing it with an equivalent dose of salbutamol sulphate dissolved in 2 ml of distilled water.
The same formulation has been investigated measuring after the first minute of continuous delivery the dimensional distribution of the delivered droplets, by putting the device in front of a laser ray of a light scattering particle size analyzer, Sympatec Helos, provided of a R1 measuring lens for the range 0.1-35 μm.

A short description of data set [2]: Dose delivered from nebulizers in 5 minutes without forced inhalation. Conditions: 240 μg salbutamol dose in 2 ml distilled water. The data set is classed as physicochemical. On the procedure: M, A: nebulizer provided with a mesh or a piezoelectric device
C: pneumatic nebulizer (jet nebulizer)
as §1
The 2 ml of solution of the two compositions taken in consideration have been loaded in the 4 nebulizers and these have been activated for 5 minutes to measure the delivered amount without forced inhalation.

The mark [3] stands for this setting: nebulizer A (mesh or piezoelectric).

With salbutamol sulphate, the “X50 of delivered droplets” value amounted to 8.21 μm in data set [1] (setting [3]); 8.67 μm in data set [1] (nebulizer C (pneumatic, jet)); 6.52 μm in data set [1] (nebulizer N (ultrasonic)). In addition, the Delivered dose in data set [2] (setting [3]) is 26.1%; in data set [2] (nebulizer C (pneumatic, jet)), 56.7%; in data set [2] (nebulizer M (mesh or piezoelectric)), 14.1%; in data set [2] (nebulizer N (ultrasonic)) it was 58.5%.

The values above are taken from patent US9138407B2, “Inhalatory pharmaceutical compositions in form of dry powders, solutions or suspensions obtained from the same and process for their preparation” (Eratech S.R.L., priority 2005, dated 2015).
